The values below come from IntAct's records for PubMed 35512704.

First the molecules themselves.
B1: RAC-alpha serine/threonine-protein kinase (Homo sapiens), P31749 (parent)
chain: MSDVAIVKEGWLHKRGEYIKTWRPRYFLLKNDGTFIGYKERPQDVDQREAPLNNFSVAQCQLMKTERPRPNTFIIRCLQWTTVIERTFHVETPEEREEWTTAIQTVADGLKKQEEEEMDFRSGSPSDNSGAEEMEVSLAKPKHRVTMNEFEYLKLLGKGTFGKVILVKEKATGRYYAMKILKKEVIVAKDEVAHTLTENRVLQNSRHPFLTALKYSFQTHDRLCFVMEYANGGELFFHLSRERVFSEDRARFYGAEIVSALDYLHSEKNVVYRDLKLENLMLDKDGHIKITDFGLCKEGIKDGATMKTFCGTPEYLAPEVLEDNDYGRAVDWWGLGVVMYEMMCGRLPFYNQDHEKLFELILMEEIRFPRTLGPEAKSLLSGLLKKDPKQRLGGGSEDAKEIMQHRFFAGIVWQHVYEKKLSPPFKPQVTSETDTRYFDEEFTAQMITITPPDQDDSMECVDSERRPHFPQFSYSASGTA
partner: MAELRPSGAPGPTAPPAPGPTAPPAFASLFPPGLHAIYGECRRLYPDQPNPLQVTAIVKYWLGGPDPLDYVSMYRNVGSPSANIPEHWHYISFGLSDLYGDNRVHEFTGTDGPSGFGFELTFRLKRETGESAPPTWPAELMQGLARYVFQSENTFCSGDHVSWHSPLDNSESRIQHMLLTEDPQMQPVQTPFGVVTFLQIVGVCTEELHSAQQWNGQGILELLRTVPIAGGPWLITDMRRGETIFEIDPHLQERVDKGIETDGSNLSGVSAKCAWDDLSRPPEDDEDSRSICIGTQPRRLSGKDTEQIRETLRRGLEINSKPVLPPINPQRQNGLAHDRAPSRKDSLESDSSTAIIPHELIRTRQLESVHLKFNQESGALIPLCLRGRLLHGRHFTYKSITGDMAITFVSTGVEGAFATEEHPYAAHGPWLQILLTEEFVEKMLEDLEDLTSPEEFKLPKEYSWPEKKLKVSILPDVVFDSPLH
B2: RAC-alpha serine/threonine-protein kinase (Homo sapiens), P31749 (parent)
chain: B1 chain
partner: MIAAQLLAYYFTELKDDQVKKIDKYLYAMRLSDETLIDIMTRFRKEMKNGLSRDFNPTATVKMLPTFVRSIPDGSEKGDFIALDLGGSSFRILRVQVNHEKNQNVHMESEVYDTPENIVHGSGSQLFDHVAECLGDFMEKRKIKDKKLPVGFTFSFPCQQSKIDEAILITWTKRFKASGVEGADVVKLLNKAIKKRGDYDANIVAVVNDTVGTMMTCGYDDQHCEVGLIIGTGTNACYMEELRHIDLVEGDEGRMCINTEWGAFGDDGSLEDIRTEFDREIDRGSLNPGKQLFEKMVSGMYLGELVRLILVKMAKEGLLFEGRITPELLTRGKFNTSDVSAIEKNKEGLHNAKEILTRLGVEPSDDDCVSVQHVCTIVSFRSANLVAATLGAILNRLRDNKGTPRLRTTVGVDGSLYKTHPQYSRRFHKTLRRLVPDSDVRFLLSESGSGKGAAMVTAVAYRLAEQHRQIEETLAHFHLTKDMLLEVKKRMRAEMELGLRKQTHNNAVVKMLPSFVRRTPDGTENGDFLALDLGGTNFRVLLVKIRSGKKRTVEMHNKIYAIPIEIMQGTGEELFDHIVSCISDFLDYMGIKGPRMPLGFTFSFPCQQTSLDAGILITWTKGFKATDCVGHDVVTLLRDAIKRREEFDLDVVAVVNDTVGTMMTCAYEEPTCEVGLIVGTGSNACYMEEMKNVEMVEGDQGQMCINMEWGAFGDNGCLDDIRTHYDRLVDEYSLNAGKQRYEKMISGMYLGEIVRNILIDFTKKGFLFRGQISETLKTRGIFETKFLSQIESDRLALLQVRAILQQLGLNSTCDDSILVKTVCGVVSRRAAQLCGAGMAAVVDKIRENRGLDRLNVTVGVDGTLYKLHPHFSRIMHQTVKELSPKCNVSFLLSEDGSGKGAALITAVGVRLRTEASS
B3: RAC-alpha serine/threonine-protein kinase (Homo sapiens), P31749 (parent)
chain: B1 chain
partner: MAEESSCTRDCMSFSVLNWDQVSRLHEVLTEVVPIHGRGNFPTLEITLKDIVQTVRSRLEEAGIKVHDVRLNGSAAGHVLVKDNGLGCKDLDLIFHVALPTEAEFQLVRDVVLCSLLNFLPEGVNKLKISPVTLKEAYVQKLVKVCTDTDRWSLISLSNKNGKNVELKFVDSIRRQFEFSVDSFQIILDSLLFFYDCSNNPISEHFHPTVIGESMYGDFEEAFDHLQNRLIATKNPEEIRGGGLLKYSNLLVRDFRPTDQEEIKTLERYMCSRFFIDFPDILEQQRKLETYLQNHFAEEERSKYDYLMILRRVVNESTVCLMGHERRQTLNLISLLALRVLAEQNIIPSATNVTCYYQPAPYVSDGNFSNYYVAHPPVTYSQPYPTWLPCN
B4: RAC-alpha serine/threonine-protein kinase (Homo sapiens), P31749 (parent)
chain: B1 chain
partner: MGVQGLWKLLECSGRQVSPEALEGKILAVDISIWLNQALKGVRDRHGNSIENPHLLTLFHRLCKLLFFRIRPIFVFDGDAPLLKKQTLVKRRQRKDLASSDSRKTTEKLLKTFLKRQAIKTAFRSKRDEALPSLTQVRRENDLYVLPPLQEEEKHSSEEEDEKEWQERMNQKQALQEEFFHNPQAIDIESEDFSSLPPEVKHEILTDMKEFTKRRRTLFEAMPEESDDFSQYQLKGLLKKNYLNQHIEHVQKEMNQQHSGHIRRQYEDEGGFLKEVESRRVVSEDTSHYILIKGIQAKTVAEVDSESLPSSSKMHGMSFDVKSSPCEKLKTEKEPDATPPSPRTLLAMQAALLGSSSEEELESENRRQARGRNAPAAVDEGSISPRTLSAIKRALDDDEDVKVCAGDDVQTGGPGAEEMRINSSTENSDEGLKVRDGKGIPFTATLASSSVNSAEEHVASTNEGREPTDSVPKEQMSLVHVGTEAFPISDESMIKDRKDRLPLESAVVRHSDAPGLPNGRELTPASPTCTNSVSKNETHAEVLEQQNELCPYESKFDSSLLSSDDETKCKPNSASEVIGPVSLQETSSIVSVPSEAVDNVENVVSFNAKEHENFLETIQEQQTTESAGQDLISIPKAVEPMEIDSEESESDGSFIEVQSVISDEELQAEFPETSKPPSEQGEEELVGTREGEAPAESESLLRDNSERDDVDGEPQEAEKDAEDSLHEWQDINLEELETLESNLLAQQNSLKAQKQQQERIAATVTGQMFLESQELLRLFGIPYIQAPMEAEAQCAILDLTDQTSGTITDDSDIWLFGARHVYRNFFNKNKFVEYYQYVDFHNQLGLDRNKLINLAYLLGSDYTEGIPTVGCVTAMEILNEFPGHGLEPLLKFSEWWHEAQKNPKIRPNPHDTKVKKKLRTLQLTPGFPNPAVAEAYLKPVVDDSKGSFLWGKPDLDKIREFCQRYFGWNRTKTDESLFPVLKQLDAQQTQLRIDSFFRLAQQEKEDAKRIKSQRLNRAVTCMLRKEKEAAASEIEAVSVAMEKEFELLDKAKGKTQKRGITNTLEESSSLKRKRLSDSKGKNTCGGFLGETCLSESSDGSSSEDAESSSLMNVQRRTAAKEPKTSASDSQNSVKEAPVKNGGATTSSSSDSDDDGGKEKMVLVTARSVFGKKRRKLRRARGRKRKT
B5: RAC-alpha serine/threonine-protein kinase (Homo sapiens), P31749 (parent)
chain: B1 chain
partner: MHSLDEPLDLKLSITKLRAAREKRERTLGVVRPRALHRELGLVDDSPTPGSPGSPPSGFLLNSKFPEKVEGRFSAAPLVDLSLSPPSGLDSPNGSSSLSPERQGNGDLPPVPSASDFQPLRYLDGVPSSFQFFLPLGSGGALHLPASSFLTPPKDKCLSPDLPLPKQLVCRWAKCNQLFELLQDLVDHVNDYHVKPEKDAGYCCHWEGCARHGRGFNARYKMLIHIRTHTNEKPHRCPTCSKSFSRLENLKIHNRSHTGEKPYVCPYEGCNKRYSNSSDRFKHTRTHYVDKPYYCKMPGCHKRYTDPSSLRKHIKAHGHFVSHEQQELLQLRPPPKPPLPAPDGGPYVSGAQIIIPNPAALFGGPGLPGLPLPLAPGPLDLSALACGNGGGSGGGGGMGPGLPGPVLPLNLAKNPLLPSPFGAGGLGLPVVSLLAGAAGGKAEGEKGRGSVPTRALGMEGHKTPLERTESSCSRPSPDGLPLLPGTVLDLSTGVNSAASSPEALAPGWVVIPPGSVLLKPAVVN

One assay covers variants of B1. The note with it: with sufu_human SUFU.
In the case of E17K, the “effect of a mutation on the interaction” value is recorded as “with no effect”.

The variants in a further assay derive from B2. The note with it: with hxk1_human HK1, P19367.
Regarding E17K, the “effect of a mutation on the interaction” value is recorded as “with no effect”.

Another assay covers variants of B3. The note with it: with tet5c_human TENT5C.
In the case of E17K, the “effect of a mutation on the interaction” value is recorded as “causing an interaction”.

Variants of B4 are the subject of another assay. The note with it: with ercc5_human ERCC5, P28715.
With E17K, the “effect of a mutation on the interaction” value was “causing an interaction”.

In another assay the parent is B5. The note with it: with glis2_human GLIS2, Q9BZE0.
Take E17K: the “effect of a mutation on the interaction” value is on record as “with no effect”.
